Assay [1] concerns the target Matrix metalloproteinase-9 (Homo sapiens, UniProt P14780). As to the kind of experiment: MMP Inhibition Assay. The settings on record: pH 7.4; 22 °C. The protocol:
(§1) A continuous assay was used in which the substrate is a synthetic peptide containing a fluorescent group (7-methoxycoumarin), which is quenched by energy transfer to a 2,4-dinitrophenyl group. When the peptide was cleaved by MMPs, an increase in fluorescence was observed. The enzymatic reactions were initiated by adding the substrate, and the initial rate of the cleavage reaction was determined immediately after substrate addition. For most MMP assays in this study, the IC50 value is approximately 2-fold of the Ki value.

Amino acid sequences for entries named in this document (tags omitted). A change or cut given only in a name is not applied to a line headed by its entry.
UniProt P14780: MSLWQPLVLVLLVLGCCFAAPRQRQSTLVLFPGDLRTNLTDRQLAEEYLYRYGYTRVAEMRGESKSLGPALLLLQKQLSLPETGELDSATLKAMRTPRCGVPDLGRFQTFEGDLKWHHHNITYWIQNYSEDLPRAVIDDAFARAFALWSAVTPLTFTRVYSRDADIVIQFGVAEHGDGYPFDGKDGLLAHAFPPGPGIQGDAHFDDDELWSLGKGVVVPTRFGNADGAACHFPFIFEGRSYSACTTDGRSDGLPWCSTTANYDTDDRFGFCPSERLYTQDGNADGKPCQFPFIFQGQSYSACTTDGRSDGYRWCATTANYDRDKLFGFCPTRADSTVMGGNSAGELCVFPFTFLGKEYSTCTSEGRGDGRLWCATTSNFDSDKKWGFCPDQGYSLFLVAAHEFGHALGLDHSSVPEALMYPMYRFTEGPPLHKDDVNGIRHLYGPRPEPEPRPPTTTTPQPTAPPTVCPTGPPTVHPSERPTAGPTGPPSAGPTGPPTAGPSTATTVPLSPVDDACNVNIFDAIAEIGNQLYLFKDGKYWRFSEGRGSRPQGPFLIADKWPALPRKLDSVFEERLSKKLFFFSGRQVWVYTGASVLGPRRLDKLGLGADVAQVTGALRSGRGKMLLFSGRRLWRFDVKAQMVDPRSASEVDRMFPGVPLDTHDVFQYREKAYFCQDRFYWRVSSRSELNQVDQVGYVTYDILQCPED

In assay [2] the target is Collagenase 3 (Homo sapiens, UniProt P45452). In words: MMP Inhibition Assay. The settings on record: pH 7.4; 22 °C. The protocol:
as §1

One may read the IC50 as the concentration needed to halve the response being measured. With `CC#CCOc1ccc(S(=O)(=O)N2CCSC(C)(C)[C@@H]2C(=O)NO)cc1` [(3S)-4-{[4-(but-2-yn-1-yloxy)benzene]sulfonyl}-N-hydroxy-2,2-dimethylthiomorpholine-3-carboxamide], the IC50 in assay [1] was found to be 12 nM; in assay [2], 3 nM.

The values above are taken from BindingDB's records for doi:10.1124/jpet.103.059675 (Wyeth Research, 2004).
